Assay results from EP0054873A1, “3,4-Di-substituted 1,2,5-oxadiazole-2 oxides, method for their preparation and pharmaceutical compositions containing them” (CASSELLA Aktiengesellschaft, priority 1980, dated 1982).

Test system: Bastardhunden
Experiment: Haemodynamic study of antianginal and antihypertensive effect in anaesthetised mongrel dogs
Format: in vivo
Settings: Dosis 0,05 mg/kg i.v., change from steady state

O=[N+]([O-])O[C@H]1CO[C@H]2[C@@H]1OC[C@H]2O[N+](=O)[O-]
BDm Δ (mittlerer peripherer Blutdruck): -19 mmHg
LVEDP Δ (linksventrikulärer enddiastolischer Druck): -2,1 mm/Hg
PAP Δ (mittlerer Pulmonalarteriendruck): -0,7 mmHg
